Binding of CDR-mutated scFvs to a peptide of the spike HR2 region

Reference: Engelhart et al. 2022, doi:10.1038/s41597-022-01779-4. File: FLAb, binding data.

Antigen: PDVDLGDISGINAS, a 14-residue peptide of the SARS-CoV-2 spike HR2 region.

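Variants in AAYL52 differ from the parent at up to three CDR positions; double and triple changes were sampled at random. AlphaSeq pools MATa yeast showing the antibodies with MATalpha yeast showing the peptide. After mating in shaken culture at 30 °C for 16 h, diploids were selected and their barcode pairs sequenced. Scores were corrected for input abundance and mapped to Kd with protein pairs of known affinity run in the same pool. The assay was run in three technical replicates.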

Ab-95 is the parent antibody, in scFv form: VH, then a (GGGGS)3 linker, then VL. The heavy chain is unchanged in all variants.
VH: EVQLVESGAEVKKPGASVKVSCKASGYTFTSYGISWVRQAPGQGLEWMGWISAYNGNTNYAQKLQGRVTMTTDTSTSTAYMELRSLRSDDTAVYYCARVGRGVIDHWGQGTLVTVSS
VL: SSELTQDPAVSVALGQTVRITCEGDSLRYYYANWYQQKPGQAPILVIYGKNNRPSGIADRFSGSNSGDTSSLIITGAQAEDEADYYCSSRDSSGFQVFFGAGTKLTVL

Each variant is given by its three light chain CDRs, as the data file delimits them; those of the parent are EGDSLRYYYAN, GKNNRPS, SSRDSSGFQVF. Affinities are written as log10 Kd with Kd in nM; a lower number is a better binder. "n.d." means that the variant was in the library but no mating with the target was seen in that replicate; the authors take this as a sign of poor binding, and no number exists. In this assay the parent's reference entry averaged 2.31; its copy inside this library read 2.25. Three control strains display no target. For library AAYL52, 28% of the pairings with them gave a signal, with a median of 3.91 and one signal in twenty below 2.90, so weak values seen in few replicates may be background.

CDR-L1	CDR-L2	CDR-L3	replicates, log10 nM
ELDSLRYSYAN	GKNNRNS	SSRDSSGFQVF	2.98 / 2.74 / 2.39
EGDFSRYYYAN	GKNNRPS	SSRDSMGFQVF	3.94 / n.d. / n.d.
EGDSLRYYYAN	GKNNIPS	SIRDSSGFQVF	2.49 / 2.80 / n.d.
EGYSLRYYYAN	GKNNRPS	SSRDSSGFQIF	2.27 / 2.24 / 2.62
EGDSLRYYYAN	GDNNRPS	SCRDSSGFQCF	2.44 / 2.42 / 2.24
EGDSLRYHYAN	YKNNRPS	SSRDSSGFTVF	2.77 / 2.91 / 2.90
EGDSLRYYYAN	GKNLRPS	SSRDSSGHCVF	n.d. / n.d. / n.d.
TGDSLRYYWAN	GTNNRPS	SSRDSSGFQVF	3.05 / 2.94 / 2.46
EGDSLRYYYAN	GKNNRPS	SETDSSTFQVF	2.25 / 1.99 / 2.14
EGDSLRYYYAN	PKNNRPS	SSRHSSGFQRF	n.d. / n.d. / 3.17
EGDYLRYFYAN	GKNNRPS	SSRDSSGFHVF	3.92 / 2.93 / 3.11
EGDDLRYYYAN	GQNNRPS	SSRDSSGFQGF	n.d. / 3.42 / 2.23
EGDKTRYYYAN	GKNNRPS	SSEDSSGFQVF	n.d. / n.d. / n.d.
EGDSLRYYYAN	AKNNRPN	SSRDSAGFQVF	2.16 / 2.98 / 2.65
EGDSLRYYYAN	GCNNRPS	SYRDSPGFQVF	n.d. / 4.90 / n.d.
EGKSLRYYYAN	GKNNRPS	SSRDSSAFQDF	2.06 / 2.01 / 1.88
EGDSLRYYYSN	GKNNRPS	SSRDVSGHQVF	2.55 / 2.47 / 2.69
EGDSLRYYYVN	GKNNRPS	SSRDSSGRQRF	n.d. / n.d. / n.d.
EGDSLRYYYAN	IRNNRHS	SSRDSSGFQVF	n.d. / n.d. / n.d.
EGDSLRYYYAN	GKNNQPS	SSRDSSGFQSF	n.d. / 5.09 / n.d.
EGDSLRNYYAN	GKNNRPS	SSRDNSGFQVH	1.81 / 1.51 / 1.56
EGDSLRYYYAN	RKWNRPS	SSRDSSMFQVF	n.d. / 3.58 / 3.27
EGDSLRYYAAN	GKNERPS	SSRDSSGEQVF	1.68 / 1.66 / 1.38
EGDWLWYYYAN	GKNNRPL	SSRDSSGFQVF	4.20 / n.d. / n.d.
EGDSLRYYYAN	GKNNAKS	SSRDSSGFQVF	3.99 / 3.49 / 3.88
EGDRYRSYYAN	GKNNRPS	SSRDSSGFQVF	n.d. / 3.46 / n.d.
EGDSLRYYYSN	GENNRPS	SVRDSSGFQVF	2.14 / 2.08 / 1.91
EGDSLRYRYAN	GKNERPS	SSRDSNGFQVF	1.79 / 1.42 / 1.36
EGDSLRYYYAN	GKNHRPS	SSRDSSGFQVC	n.d. / 3.58 / n.d.
EGDSLRYYYAN	GKNCRPS	SSRDSSGFQQK	4.33 / 4.55 / n.d.
EGDSLRYYYAN	GKNNYPS	SSRFSSGFQAF	4.55 / n.d. / n.d.
EGDSLRYYYAN	GKNNRPS	SSRDSSGFEFH	3.15 / 3.66 / n.d.
EGDWLRYYYAN	MKNNRPE	SSRDSSGFQVF	3.93 / 3.81 / 4.46
EGDSLRYYSAS	GKNNRPV	SSRDSSGFQVF	2.25 / 2.87 / 2.49
HGDSLRYYYAN	GKNNIPS	SSDDSSGFQVF	3.18 / 3.01 / 3.48
PGDSLRYYYAS	GKVNRPS	SSRDSSGFQVF	4.76 / n.d. / 4.13
EGDSLRTIYAN	GKNFRPS	SSRDSSGFQVF	3.38 / 2.42 / 3.69
EHDILRYYYAN	GKNHRPS	SSRDSSGFQVF	3.62 / 4.83 / n.d.
EGDSLYIYYAN	GKNNRPS	SSRDCSGFQVF	4.50 / n.d. / n.d.
EGDSLRYYYKN	GKNNRPS	SSRRSAGFQVF	3.01 / 4.77 / n.d.

Extract of 6 entries:

CDR-L1	CDR-L2	CDR-L3	replicates, log10 nM
EGDSLRYYYAN	PKNNRPS	SSRHSSGFQRF	n.d. / n.d. / 3.17
EGDSLRYYYAN	GKNLRPS	SSRDSSGHCVF	n.d. / n.d. / n.d.
EHDILRYYYAN	GKNHRPS	SSRDSSGFQVF	3.62 / 4.83 / n.d.
EGDSLRYYYAN	GKNNRPS	SETDSSTFQVF	2.25 / 1.99 / 2.14
EGDSLRYYYKN	GKNNRPS	SSRRSAGFQVF	3.01 / 4.77 / n.d.
EGDSLRYYYVN	GKNNRPS	SSRDSSGRQRF	n.d. / n.d. / n.d.